Reference: PubChem BioAssay AID588436 (Broad Institute, 2011)
The entries are a selection whose mix differs from that of the whole data set. Activity calls are given as the source filed them. Cut-off read from the data, not from the text of the source: active = activation mostly above about 9.7% (no sharp cut-off); inconclusive = no clear call, values can overlap the other calls; inactive = mostly below about 3.7%.

assay: induces V. cholerae light production without autoinducers, primary screen, BH1578 luxS cqsA deficient, single point (AID 588436); details: V. cholerae BH1578 lux reporter, luminescence, 6 h; at 18.7 µM; active compounds read high

Structure (SMILES) | activation
CCOP(=O)(Nc1ccccc1)OCC | inactive: -2.08%
Cc1ccc(NP(=O)(Oc2ccccc2F)Oc2ccccc2F)nc1 | inactive: -0.53%
CN(C(=O)Cc1ccc(Cl)c(Cl)c1)[C@H]1CCCC[C@@H]1N1CCCC1 | inactive: 0%
CC(C)(C)C(=O)NC(Sc1ccncn1)C(Cl)(Cl)Cl (stereo not given) | inactive: -0.506%
O=[N+]([O-])c1ncn(CCn2ncnc2[N+](=O)[O-])n1 | inactive: 0.758%
COC(=O)C1(C)COP(=O)(Nc2ccccc2)OC1 (stereo not given) | inactive: -1.09%
O=[N+]([O-])c1cccc(NC2=NCC(CBr)S2)c1 (stereo not given) | inactive: -0.2%
O=C(O)CNc1ccc([As](=O)(O)O)cc1 | inactive: -0.612%
O=P1(N(CCCl)CCCl)OCCCS1 (stereo not given) | inactive: -0.834%
O=C(Nc1cc([As](=O)(O)O)ccc1O)c1ccccc1 | inactive: 0%
Nc1ccc([As](=O)(O)c2ccc(N)cc2)cc1 | inactive: -0.787%
C[N+]1=C2C=CC=CC=C2SC12C([N+](=O)[O-])=CC([N+](=O)[O-])=C[C-]2[N+](=O)[O-] (stereo not given) | inactive: 0%
CCN(/C(=N/P(=O)(N1CCOCC1)N1CCOCC1)N1CCOCC1)c1ccc(OC)cc1 | inactive: -0.396%
CC(C)c1nc(Nc2ccccc2)n(P(=O)(N(C)C)N(C)C)n1 | inactive: -5%
CC(C)=N/N=C(\N)N[N+](=O)[O-] | inactive: -0.828%
CN(C)C(=O)OCCc1n(C)cc[n+]1C | inactive: 0.338%
CC1CCN(C(=O)Oc2c(Cl)cc(Cl)c3cccnc23)CC1 | inactive: -16.7%
c1cc(-c2nn[nH]n2)ccc1-c1nn[nH]n1 | inactive: 0%
COc1ccc(C2=NCC(CBr)S2)cc1 (stereo not given) | inactive: 0%
O=[N+]([O-])c1cccc2n[nH]nc12 | inactive: 8.33%
CC(=O)N1C2C3N(C(C)=O)C1C1N(C(C)=O)C(C(N1C(C)=O)N3C(C)=O)N2C(C)=O | inactive: 0%
Cc1ccc(NP(=O)(Oc2ccccc2)Oc2ccccc2)nc1 | inactive: 0%

Structure (SMILES) | activation
CCc1nc2c(n1)c1c(non1O)c1c2no[n+]1[O-] | inactive: 0%
O=[N+]([O-])c1cc([N+](=O)[O-])c(CCNc2ccccc2)c([N+](=O)[O-])c1 | inactive: -0.133%
CC(C)C(=O)NC(Sc1ccccc1)C(Cl)(Cl)Cl (stereo not given) | inactive: 0%
O=P(Nc1nccs1)(c1ccccc1)c1ccccc1 | inactive: -0.187%
c1nnnn1CCn1cnnn1 | inactive: -0.274%
O=[N+]([O-])c1ccc(O)c(/C=N/Nc2ccc([N+](=O)[O-])cc2[N+](=O)[O-])c1 | inactive: 0.238%
CC(=O)NC(SC(=S)N(C)C)C(Cl)(Cl)Cl (stereo not given) | inactive: -2.7%
O=[N+]([O-])c1ncn(CCn2cnc([N+](=O)[O-])n2)n1 | inactive: 4.36%
O=[As](O)(c1ccccc1)c1ccc(O)cc1 | inactive: -0.629%
C(Cc1nn[nH]n1)Cc1nn[nH]n1 | inactive: -0.313%
Nc1ccc([As](=O)(O)c2ccc([N+](=O)[O-])cc2)cc1 | inactive: 0.468%
O=C(OC1CN2CCC1CC2)c1cccc(Cl)c1 (stereo not given) | inactive: -0.724%
COc1ccc(N)c([N+](=O)[O-])c1[N+](=O)[O-] | inactive: -0.416%
O=P(Nc1ccccn1)(c1ccc(Br)cc1)c1ccc(Br)cc1 | inactive: 2.13%
CN(C)C1(CNC(=O)c2ccc(Cl)c(S(N)(=O)=O)c2)CCCCC1 | inactive: 0%
O=P(Nc1nc2ccccc2s1)(c1ccccc1)c1ccccc1 | inactive: 0%
C[C@H]1OP(=O)(Oc2ccccc2)[C@H](O)[C@H](O)[C@H]1N=[N+]=[N-] (stereo not given in full) | inactive: 0%
COC(=O)c1cc2c(s1)N=C(c1ccccc1)N(C)P2(=O)N1CCOCC1 (stereo not given) | inactive: -0.13%
CC(=O)NC(SC(=S)N(CC(C)C)CC(C)C)C(Cl)(Cl)Cl (stereo not given) | inactive: -3.68%
Cc1ccc(OP(=O)(Nc2ccccn2)Oc2ccc(C)cc2)cc1 | inactive: -1.39%
O=C(OC1CN2CCC1CC2)c1ccccc1 (stereo not given) | inactive: -0.811%
CCC(=O)N1C2C3N(C(=O)CC)C1C1N(C(=O)CC)C(C(N1C(=O)CC)N3C(=O)CC)N2C(=O)CC | inactive: -1.82%

Structure (SMILES) | activation
CC(NC(=O)COC(=O)C(O)(c1ccccc1)c1ccccc1)c1ccccc1 (stereo not given) | inactive: 0.87%
Cc1ccccc1OP(=O)(Nc1ccccn1)Oc1ccccc1C | inactive: -0.686%
O=c1c2cc([N+](=O)[O-])ccc2[nH]c2c([N+](=O)[O-])cc([N+](=O)[O-])cc12 | inactive: 0%
CN(C)C(=O)Oc1noc2ccccc12 | inactive: -1.01%
CCNC(=S)/N=C(\N)N[N+](=O)[O-] | inactive: 4.55%
O=C(NC1CCS(=O)(=O)C1)NP(=S)(Oc1ccccc1)Oc1ccccc1 (stereo not given) | inactive: 0.0175%
c1ccc(-c2nn[nH]n2)c(-c2nn[nH]n2)c1 | inactive: -0.171%
Cc1ccc(NP(=O)(Oc2cccc(C)c2)Oc2cccc(C)c2)nc1 | inactive: -0.262%
O=P1(N(CCCl)CCCl)OCCC2CCCCN21 (stereo not given) | inactive: -0.971%
CC(=O)c1ccc(N2CC2c2ccncc2)cc1 (stereo not given) | inactive: 0%
N#C/C(=C\c1ccc(N(CCBr)CCBr)cc1)C(N)=O | inactive: -0.769%
COC(=O)C1(C)COP(=O)(NCc2ccccc2)OC1 (stereo not given) | inactive: 0%
Cc1ccccc1CN(C)C(=O)COC(=O)C(O)(c1ccccc1)c1ccccc1 | inactive: 0%
C[C@H]1OP(=O)(Oc2ccccc2)C[C@@H]2O[C@@H]21 (stereo not given in full) | inactive: 0%
C[C@@H]1C=CCP(=O)(Oc2ccccc2)O1 (stereo not given in full) | inactive: -2.17%
CC(=O)Nc1ccc([As](=O)(O)O)c(O)c1 | inactive: -0.378%
CC(=O)Nc1ccc(Oc2c([N+](=O)[O-])cc([N+](=O)[O-])cc2[N+](=O)[O-])cc1 | inactive: -0.871%
O=P1(Nc2nc3ccc(Cl)cc3s2)COc2ccccc2O1 (stereo not given) | inactive: -11.1%
CCOc1ccc(C2=NCC(CBr)S2)cc1 (stereo not given) | inactive: -0.141%
CCc1cc(O)c([N+](=O)[O-])c(C)c1[N+](=O)[O-] | inactive: -13%
CC(C)(C)C(=O)NC(Sc1ccccc1)C(Cl)(Cl)Cl (stereo not given) | inactive: -0.352%
